Like-named read-outs stand apart in the source and are kept apart here.
Tests used:
[1] = biological target: T1, recombinant biotinylated monomeric Fc fusion of human Folate Receptor 1 (huFolR1 ECD-AcTev-Fcknob-Avi tag … (human, UniProt P0DOX5 223-449 = IgG part, biotin on the C-terminal Avi tag)); assay: SPR Biacore, affinity (monovalent), antibody captured via anti-Fab
T1 construct: also called huFolR1-Fc; human FolR1-Fc
Method: (§1) Binding of FolR1 binders as IgG or in the T-cell bispecific format to different recombinant folate receptors (human FolR1, 2 and 3, murine FolR1 and cynomolgus FolR1; all as Fc fusions) was assessed by surface plasmon resonance (SPR). All SPR experiments were performed on a Biacore T200 at 25° C. with HBS-EP as running buffer (0.01 M HEPES pH 7.4, 0.15 M NaCl, 3 mM EDTA, 0.005% Surfactant P20, Biacore, Freiburg/Germany).
For affinity measurement, direct coupling of around 6000-7000 resonance units (RU) of the anti-human Fab specific antibody (Fab capture kit, GE Healthcare) was performed on a CM5 chip at pH 5.0 using the standard amine coupling kit (GE Healthcare). Anti-FolR1 IgGs or T cell bispecifics were captured at 20 nM with a flow rate of 10 μl/min for 20 or 40 sec, the reference flow cell was left without capture. Dilution series (6.17 to 500 nM or 12.35 to 3000 nM) of human or cyno Folate Receptor 1 Fc fusion were passed on all flow cells at 30 μl/min for 120 or 240 sec to record the association phase. The dissociation phase was monitored for 240 s and triggered by switching from the sample solution to HBS-EP. The chip surface was regenerated after every cycle using a double injection of 60 sec 10 mM Glycine-HCl pH 2.1 or pH 1.5. Bulk refractive index differences were corrected for by subtracting the response obtained on the reference flow cell 1. […]

[2] = biological target: T1, recombinant biotinylated monomeric Fc …; assay: SPR Biacore, avidity (bivalent, apparent KD), antigen-Fc on SA chip
Method: as §1
Recombinant biotinylated monomeric Fc fusions of human, cynomolgus and murine Folate Receptor 1 (FolR1-Fc) were directly coupled on a SA chip using the standard coupling instruction (Biacore, Freiburg/Germany). The immobilization level was about 300-400 RU. The anti-FolR1 IgGs or T cell bispecifics were passed at a concentration range from 2.1 to 500 nM with a flow of 30 μL/minutes through the flow cells over 180 seconds. The dissociation was monitored for 600 seconds. Bulk refractive index differences were corrected for by subtracting the response obtained on reference flow cell immobilized with recombinant biotinylated IL2 receptor Fc fusion. […] The binding curves resulting from the bivalent binding of the IgGs or T cell bispecifics were approximated to a 1:1 Langmuir binding and fitted with that model (which is not correct, but gives an idea of the avidity). […]

[3] = biological target: T1, recombinant biotinylated monomeric Fc …; assay: SPR ProteOn, Fab analyte on immobilized antigen-Fc
Method: (§2) Immobilization of antigens (ligand): Recombinant antigens were diluted with PBST (10 mM phosphate, 150 mM sodium chloride pH 7.4, 0.005% Tween 20) to 10 μg/ml, then injected at 30 μl/minute in vertical orientation. Injection of analytes: For ‘one-shot kinetics’ measurements, injection direction was changed to horizontal orientation, two-fold dilution series of purified Fab (varying concentration ranges) were injected simultaneously along separate channels 1-5, with association times of 200 s, and dissociation times of 600 s. Buffer (PBST) was injected along the sixth channel to provide an “in-line” blank for referencing. Association rate constants (kₒₙ) and dissociation rate constants (koff) were calculated using a simple one-to-one Langmuir binding model in ProteOn Manager v3.1 software by simultaneously fitting the association and dissociation sensorgrams. The equilibrium dissociation constant (KD) was calculated as the ratio koff/kₒₙ.

[4] = biological target: T2, recombinant biotinylated monomeric Fc fusion of murine Folate Receptor 1 (mu FolR1 ECD-AcTev-Fcknob-Avitag … (murine, UniProt P0DOX5 223-449 = IgG part, biotin on the C-terminal Avi tag)); assay: SPR ProteOn, Fab analyte on immobilized antigen-Fc
T2 construct: also called muFolR1-Fc; murine FolR1
Method: as §2

[5] = biological target: T2, recombinant biotinylated monomeric Fc …; assay: SPR ProteOn, Fab analyte on immobilized antigen-Fc; remark: listed apart in the source
Method: Immobilization of antigens (ligand): Recombinant antigens were diluted with PBST (10 mM phosphate, 150 mM sodium chloride pH 7.4, 0.005% Tween 20) to 10 μg/ml, then injected at 30 μl/minute in vertical orientation. Injection of analytes: For ‘one-shot kinetics’ measurements, injection direction was changed to horizontal orientation, two-fold dilution series of purified Fab (varying concentration ranges) were injected simultaneously along separate channels 1-5, with association times of 150 or 200 s, and dissociation times of 200 or 600 s, respectively. Buffer (PBST) was injected along the sixth channel to provide an “in-line” blank for referencing. Association rate constants (kₒₙ) and dissociation rate constants (koff) were calculated using a simple one-to-one Langmuir binding model in ProteOn Manager v3.1 software by simultaneously fitting the association and dissociation sensorgrams. The equilibrium dissociation constant (KD) was calculated as the ratio koff/kₒₙ.

B1: Farletuzumab (antibody, V domains shown)
VH: EVQLVESGGGVVQPGRSLRLSCSASGFTFSGYGLSWVRQAPGKGLEWVAMISSGGSYTYYADSVKGRFAISRDNAKNTLFLQMDSLRPEDTGVYFCARHGDDPAWFAYWGQGTPVTVSS
VL: DIQLTQSPSSLSASVGDRVTITCSVSSSISSNNLHWYQQKPGKAPKPWIYGTSNLASGVPSRFSGSGSGTDYTFTISSLQPEDIATYYCQQWSSYPYMYTFGQGTKVEIKR
Q: Which Kd [1] does the source give for B1 here?
A: The Kd was 55.3 nM.

Q: And the Kd [2]?
A: Its Kd is 0.73 nM.

B2: 19E5 Fab (Fab, V domains shown)
VH: QVQLVQSGAEVKKPGASVKVSCKASGYTFTSYYMHWVRQAPGQGLEWMGIINPSGGSTSYAQKFQGRVTMTRDTSTSTVYMELSSLRSEDTAVYYCARGEWRRYTSFDYWGQGTLVTVSS
VL: QAVVTQEPSLTVSPGGTVTLTCGSSTGAVTTSNYANWVQEKPGQAFRGLIGGTNKRAPGTPARFSGSLLGGKAALTLSGAQPEDEAEYYCALWYSNLWVFGGGTKLTVL
notes: bacterial Fab
Q: With B2 as the binder, how does the Kd [3] read?
A: The Kd was 522 nM.

Q: And the Kd [4]?
A: The Kd was 19.4 nM.

B3: 14E4 Fab (Fab, V domains shown)
VH: not shown
VL: EIVLTQSPGTLSLSPGERATLSCRASQSVSSSYLAWYQQKPGQAPRLLIYGASSRATGIPDRFSGSGSGTDSTLTISRLEPEDFAVYYCQQPTSSPITFGQGTKVEIK
notes: bacterial Fab
Q: For B3, which Kd [5] is on record?
A: The Kd was 6.09 nM.
